Measurements: article PMC6104465, “Synthesis and in vitro and in vivo evaluation of urea-based PSMA inhibitors with increased lipophilicity” (EJNMMI Research, 2018)

The chains behind the UniProt entries cited, without tags or fusion partners. Residues count along the entry.
UniProt P02768, 25-609: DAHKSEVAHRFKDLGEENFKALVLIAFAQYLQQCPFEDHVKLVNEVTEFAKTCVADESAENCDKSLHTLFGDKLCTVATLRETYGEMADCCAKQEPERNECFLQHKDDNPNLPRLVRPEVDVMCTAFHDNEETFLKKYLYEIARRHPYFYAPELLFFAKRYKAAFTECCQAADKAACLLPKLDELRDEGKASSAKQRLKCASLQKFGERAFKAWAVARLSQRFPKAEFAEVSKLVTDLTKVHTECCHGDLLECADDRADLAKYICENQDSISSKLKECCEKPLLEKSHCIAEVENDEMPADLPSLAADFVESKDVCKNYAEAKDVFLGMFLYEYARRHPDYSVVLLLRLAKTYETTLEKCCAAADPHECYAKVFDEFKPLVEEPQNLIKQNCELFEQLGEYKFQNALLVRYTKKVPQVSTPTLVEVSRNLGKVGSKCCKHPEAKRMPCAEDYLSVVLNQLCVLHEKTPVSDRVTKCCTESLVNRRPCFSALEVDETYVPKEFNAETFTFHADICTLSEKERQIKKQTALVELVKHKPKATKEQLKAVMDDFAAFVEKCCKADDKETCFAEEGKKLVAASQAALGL

Tests used:
[1] = molecular target: T1, human serum albumin (Homo sapiens, UniProt P02768); test: human serum albumin binding, HPLC on Chiralpak HSA column; format: in vitro ADME; settings: calibration reference substances; logarithmic K from the literature HSA binding; ref [3, 4]
T1 construct: purchased Daicel Chemical Industries, purchased from Chiral Technologies Europe (Illkirch, France) Chiralpak HSA (5 μm, 50 × 3 mm)

[2] = molecular target: T1, human serum albumin; parameters: method as in Valko et. al. or Yamazaki et al. [3, 4]; settings: calibration reference substances; ref Valko et. al. or Yamazaki et al. [3, 4]; cited from earlier work

NC(=O)N1c2ccccc2C=Cc2ccccc21 [Carbamazepine]
Log K HSA [1]: 0.46
Lit. HSA% (literature value of human serum albumin binding) [2]: 75.00%
